Tests used:
KRas G13D = molecular target: T1, KRas G13D (Homo sapiens, UniProt P01116, G13D); assay: KRas binding assay (TR-FRET displacement); settings: TR-FRET tracer displacement, 60-minute incubation at room temperature;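 further: One-hour room temperature incubation before TR-FRET reading, IC50 from a four-parameter curve fit to percent-of-control data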
T1 construct: Biotinylated KRas (corresponding to amino acids 1-169, produced at Accelegan Inc.); biotin (biotinylated); purchased Accelegan Inc

By UniProt entry, the sequences of proteins in these tests, tags left out. Where a name states a change or a piece, a line headed by the entry shows the natural chain unless it says otherwise.
UniProt P01116: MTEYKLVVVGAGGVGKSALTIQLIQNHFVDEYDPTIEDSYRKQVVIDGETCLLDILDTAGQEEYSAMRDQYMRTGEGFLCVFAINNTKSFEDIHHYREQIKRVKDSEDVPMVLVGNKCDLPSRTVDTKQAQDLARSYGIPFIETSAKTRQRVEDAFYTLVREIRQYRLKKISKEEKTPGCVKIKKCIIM

KRas Q61H = molecular target: T2, KRas Q61H (Homo sapiens, UniProt P01116, Q61H); assay: KRas binding assay (TR-FRET displacement); settings: TR-FRET tracer displacement, 60-minute incubation at room temperature;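 further: TR-FRET signal read after one hour at room temperature, IC50 derived by four-parameter fitting of percent-of-control values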
T2 construct: Biotinylated KRas (corresponding to amino acids 1-169, produced at Accelegan Inc.); biotin (biotinylated); purchased Accelegan Inc

| Compound | IC50 (KRas G13D) | IC50 (KRas Q61H) |
| --- | --- | --- |
| CCc1c(F)ccc2cc(O)cc(-c3ncc4c(N5CCC[C@@](C)(O)C5)nc(C(=O)NC(C)CN(C)C)nc4c3F)c12 (stereo partly drawn) [Example 312, N-(1-(dimethylamino)propan-2-yl)-7-(8-ethyl-7-fluoro-3-hydroxynaphthalen-1-yl)-8-fluoro-4-((R)-3-hydroxy-3-methylpiperidin-1-yl)pyrido[4,3-d]pyrimidine-2-carboxamide] | 0.242 µM | 0.28 µM |
| CCc1cccc2cccc(-c3ncc4c(N5CCCC(c6nc[nH]n6)C5)nc(OCC56CCCN5CCC6)nc4c3F)c12 (stereo not drawn) [Example 295, 4-(3-(1H-1,2,4-triazol-3-yl)piperidin-1-yl)-7-(8-ethylnaphthalen-1-yl)-8-fluoro-2-((hexahydro-1H-pyrrolizin-7a-yl)methoxy)pyrido[4,3-d]pyrimidine] | 2.87 µM | 3.26 µM |
| Cc1cccc2cccc(-c3ncc4c(N5CCCC(c6nc[nH]n6)C5)nc(OCC56CCCN5CCC6)nc4c3F)c12 (stereo not drawn) [Example 455, 4-(3-(1H-1,2,4-triazol-3-yl)piperidin-1-yl)-8-fluoro-2-((hexahydro-1H-pyrrolizin-7a-yl)methoxy)-7-(8-methylnaphthalen-1-yl)pyrido[4,3-d]pyrimidine] | 13.1 µM | 11.6 µM |
| CCc1cccc2cccc(-c3ncc4c(N5CCCC6(CNC(=O)C6)C5)nc(OCC56CCCN5CCC6)nc4c3F)c12 (stereo not drawn) [Example 286, 7-(7-(8-ethylnaphthalen-1-yl)-8-fluoro-2-((hexahydro-1H-pyrrolizin-7a-yl)methoxy)pyrido[4,3-d]pyrimidin-4-yl)-2,7-diazaspiro[4.5]decan-3-one] | 0.498 µM | 0.555 µM |
| Cc1cc(-c2ncc3c(N4CCCC(C)(O)C4)nc(OCC45CCCN4CCC5)nc3c2F)c2cn[nH]c2c1 (stereo not drawn) [Example 431, 1-(8-fluoro-7-(6-methyl-1H-indazol-4-yl)-2-((tetrahydro-1H-pyrrolizin-7a(5H)-yl)methoxy)pyrido[4,3-d]pyrimidin-4-yl)-3-methylpiperidin-3-ol] | 13.3 µM | 22.2 µM |
| O=C1NC(=O)C2(CCCN(c3nc(OCC45CCCN4CCC5)nc4c(F)c(-c5cccc6cccc(CF)c56)ncc34)C2)N1 (stereo not drawn) [Example 462, 7-(8-fluoro-7-(8-(fluoromethyl)naphthalen-1-yl)-2-((hexahydro-1H-pyrrolizin-7a-yl)methoxy)pyrido[4,3-d]pyrimidin-4-yl)-1,3,7-triazaspiro[4.5]decane-2,4-dione] | 0.393 µM | 0.567 µM |
| O=C1NCC2(CCCN(c3nc(OCC45CCCN4CCC5)nc4c(F)c(-c5cccc6cccc(CO)c56)ncc34)C2)N1 (stereo not drawn) [Example 453, 7-(8-fluoro-2-((hexahydro-1H-pyrrolizin-7a-yl)methoxy)-7-(8-(hydroxymethyl)naphthalen-1-yl)pyrido[4,3-d]pyrimidin-4-yl)-1,3,7-triazaspiro[4.5]decan-2-one] | 0.503 µM | 0.679 µM |
| Cc1cc(N)nc(-c2ncc3c(N4CCC[C@@](C)(O)C4)nc(OC[C@@H]4CCCN4C)nc3c2F)c1C(F)(F)F [Example 435, (R)-1-(7-(6-amino-4-methyl-3-(trifluoromethyl)pyridin-2-yl)-8-fluoro-2-(((S)-1-methylpyrrolidin-2-yl)methoxy)pyrido[4,3-d]pyrimidin-4-yl)-3-methylpiperidin-3-ol] | 2.06 µM | 6.1 µM |
| CCc1c(F)ccc2cc(O)cc(-c3ncc4c(N5CCC[C@]6(CC(=O)N6)C5)nc(OCC5(CN6CCCC6)CC5)nc4c3F)c12 [Example 319, (S)-6-(7-(8-ethyl-7-fluoro-3-hydroxynaphthalen-1-yl)-8-fluoro-2-((1-(pyrrolidin-1-ylmethyl)cyclopropyl)methoxy)pyrido[4,3-d]pyrimidin-4-yl)-1,6-diazaspiro[3.5]nonan-2-one] | ≤ 0.002 µM | ≤ 0.002 µM |
| CCc1cccc2cccc(-c3ncc4c(N5CCCC6(CNC(=O)N6)C5)nc(OCC56CCCN5CCC6)nc4c3F)c12 (stereo not drawn) [Example 294, 7-(7-(8-ethylnaphthalen-1-yl)-8-fluoro-2-((hexahydro-1H-pyrrolizin-7a-yl)methoxy)pyrido[4,3-d]pyrimidin-4-yl)-1,3,7-triazaspiro[4.5]decan-2-one] | 0.016 µM | 0.014 µM |

The next lines start with the values.

| IC50 (KRas G13D) | IC50 (KRas Q61H) | Compound |
| --- | --- | --- |
| 5.53 µM | 6.4 µM | N#Cc1cccc2cccc(-c3ncc4c(N5CCCC6(C5)NC(=O)NC6=O)nc(OCC56CCCN5CCC6)nc4c3F)c12 (stereo not drawn) [Example 449, 8-(4-(2,4-dioxo-1,3,7-triazaspiro[4.5]decan-7-yl)-8-fluoro-2-((hexahydro-1H-pyrrolizin-7a-yl)methoxy)pyrido[4,3-d]pyrimidin-7-yl)-1-naphthonitrile] |
| 0.212 µM | 0.173 µM | NS(=O)(=O)CC1CCCN(c2nc(OCC34CCCN3CCC4)nc3c(F)c(-c4cccc5ccccc45)ncc23)C1 (stereo not drawn) [Example 436] |
| 0.054 µM | 0.05 µM | O=C1NCC2(CCCN(c3nc(OCC45CCCN4CCC5)nc4c(F)c(-c5cccc6cccc(Cl)c56)ncc34)C2)N1 (stereo not drawn) [Example 284, 7-(7-(8-chloronaphthalen-1-yl)-8-fluoro-2-((hexahydro-1H-pyrrolizin-7a-yl)methoxy)pyrido[4,3-d]pyrimidin-4-yl)-1,3,7-triazaspiro[4.5]decan-2-one] |
| 0.125 µM | 0.051 µM | NS(=O)(=O)CC1CCCN(c2nc(OCC34CCCN3CCC4)nc3c(F)c(-c4cccc5cccc(Cl)c45)ncc23)C1 (stereo not drawn) [Example 281, 1-(1-(7-(8-chloronaphthalen-1-yl)-8-fluoro-2-((tetrahydro-1H-pyrrolizin-7a(5H)-yl)methoxy)pyrido[4,3-d]pyrimidin-4-yl)piperidin-3-yl)methanesulfonamide] |
| ≤ 0.002 µM | ≤ 0.002 µM | CCc1c(F)ccc2cc(O)cc(-c3ncc4c(N5CCCC6(CC(=O)NC6=O)C5)nc(OC[C@@]56CCCN5C[C@H](F)C6)nc4c3F)c12 (stereo partly drawn) [Example 318, 7-(7-(8-ethyl-7-fluoro-3-hydroxynaphthalen-1-yl)-8-fluoro-2-(((2R,7aS)-2-fluorohexahydro-1H-pyrrolizin-7a-yl)methoxy)pyrido[4,3-d]pyrimidin-4-yl)-2,7-diazaspiro[4.5]decane-1,3-dione] |
| 2.44 µM | 1.91 µM | NS(=O)(=O)CC1CCCN(c2nc(OCC34CCCN3CCC4)nc3c(F)c(-c4cccc5cccc(CO)c45)ncc23)C1 (stereo not drawn) [Example 439, 1-(1-(8-fluoro-2-((hexahydro-1H-pyrrolizin-7a-yl)methoxy)-7-(8-(hydroxymethyl)naphthalen-1-yl)pyrido[4,3-d]pyrimidin-4-yl)piperidin-3-yl)methanesulfonamide] |
| 7.52 µM | 8.14 µM | NC(=O)C(O)CNc1nc(OCC23CCCN2CCC3)nc2c(F)c(-c3cccc4cccc(Cl)c34)ncc12 (stereo not drawn) [Example 475, 3-((7-(8-chloronaphthalen-1-yl)-8-fluoro-2-((tetrahydro-1H-pyrrolizin-7a(5H)-yl)methoxy)pyrido[4,3-d]pyrimidin-4-yl)amino)-2-hydroxypropanamide] |
| 1.37 µM | 2.43 µM | O=C1NC(=O)C2(CCCCN(c3nc(OCC45CCCN4CCC5)nc4c(F)c(-c5cccc6cccc(F)c56)ncc34)C2)N1 (stereo not drawn) [Example 267, 7-(8-fluoro-7-(8-fluoronaphthalen-1-yl)-2-((hexahydro-1H-pyrrolizin-7a-yl)methoxy)pyrido[4,3-d]pyrimidin-4-yl)-1,3,7-triazaspiro[4.6]undecane-2,4-dione] |
| 3.58 µM | 3.51 µM | O=C1CC2(CCCN(c3nc(OCC45CCCN4CCC5)nc4c(F)c(-c5cccc6cccc(C(F)F)c56)ncc34)C2)N1 (stereo not drawn) [Example 466, 6-(7-(8-(difluoromethyl)naphthalen-1-yl)-8-fluoro-2-((hexahydro-1H-pyrrolizin-7a-yl)methoxy)pyrido[4,3-d]pyrimidin-4-yl)-1,6-diazaspiro[3.5]nonan-2-one] |
| 4.19 µM | 5.11 µM | O=C1CC2(CCCN(c3nc(OCC45CCCN4CCC5)nc4c(F)c(-c5cccc6cccc(CF)c56)ncc34)C2)N1 (stereo not drawn) [Example 468, 6-(8-fluoro-7-(8-(fluoromethyl)naphthalen-1-yl)-2-((hexahydro-1H-pyrrolizin-7a-yl)methoxy)pyrido[4,3-d]pyrimidin-4-yl)-1,6-diazaspiro[3.5]nonan-2-one] |
| 0.586 µM | 0.793 µM | Cc1cc(N)nc(-c2ncc3c(N4CCCC(C)(O)C4)nc(OC[C@@]45CCCN4C[C@H](F)C5)nc3c2F)c1C(F)(F)F (stereo partly drawn) [Example 459, 1-(7-(6-amino-4-methyl-3-(trifluoromethyl)pyridin-2-yl)-8-fluoro-2-(((2R,7aS)-2-fluorohexahydro-1H-pyrrolizin-7a-yl)methoxy)pyrido[4,3-d]pyrimidin-4-yl)-3-methylpiperidin-3-ol] |
| 0.018 µM | 0.017 µM | O=C1NC(=O)C2(CCCN(c3nc(OCC45CCCN4CCC5)nc4c(F)c(-c5cccc6cccc(Cl)c56)ncc34)C2)N1 (stereo not drawn) [Example 282, 7-(7-(8-chloronaphthalen-1-yl)-8-fluoro-2-((hexahydro-1H-pyrrolizin-7a-yl)methoxy)pyrido[4,3-d]pyrimidin-4-yl)-1,3,7-triazaspiro[4.5]decane-2,4-dione] |
| 0.256 µM | 0.231 µM | CSc1cccc2cccc(-c3ncc4c(N5CCCC6(CC(=O)N6)C5)nc(OCC56CCCN5CCC6)nc4c3F)c12 (stereo not drawn) [Example 469, 6-(8-fluoro-2-((hexahydro-1H-pyrrolizin-7a-yl)methoxy)-7-(8-(methylthio)naphthalen-1-yl)pyrido[4,3-d]pyrimidin-4-yl)-1,6-diazaspiro[3.5]nonan-2-one] |
| 0.011 µM | 0.011 µM | CCc1cccc2cc3[nH]ncc3c(-c3ncc4c(N5CCC[C@@](C)(O)C5)nc(OC[C@@]56CCCN5C[C@H](F)C6)nc4c3F)c12 [Example 473, (3R)-1-(7-(5-ethyl-1H-benzo[f]indazol-4-yl)-8-fluoro-2-(((2R,7aS)-2-fluorohexahydro-1H-pyrrolizin-7a-yl)methoxy)pyrido[4,3-d]pyrimidin-4-yl)-3-methylpiperidin-3-ol] |

Reference: patent US12398154B2, “Azaquinazoline pan-KRas inhibitors” (Mirati Therapeutics, Inc., priority 2020, dated 2025)
